Reference: patent US11857601B2, “Pharmaceutical composition for cancer treatment comprising fusion protein including IL-2 protein and CD80 protein and anticancer drug” (GI INNOVATION, INC., priority 2020, dated 2024)

Legend:
HCT116 cells = experiment: Cancer cell killing, GI-101 and Cetuximab, HCT116 with NK cells; assay type: cell-based, human; details: GI-101 100 nM, Cetuximab 68.6 nM, 24 hours
Excerpt: This experiment was to evaluate the effect of killing cancer cells by treating HCT116 cells (human colon cancer cells) with the test substance GI-101 alone or in combination with Cetuximab substance in an in vitro environment.
HCT116 cells were purchased from the Korea cell line bank and cultured in McCoy's 5A medium (ATCC) containing 10% FBS (Gibco) and 1% antibiotic/antifungal agent (Gibco). For use in cancer cell killing test, the cells were harvested using trypsin (Gibco), and then suspended in McCoy's 5A medium, and then dead cells and debris were removed using Ficoll (GE Healthcare Life Sciences) solution. The cells suspended in McCoy's 5A medium were carefully layered on ficoll solution. […]
In order to identify the effect of killing the cells, a CytoTox Green reagent ([…]™ CytoTox Green, Satorius) that binds to the DNA of cells to be killed was prepared in 1 μl per 1 mL of RPMI1640 medium containing 5% human AB serum (Sigma). The prepared medium was used for dilution of the test substance, and the effect of killing the cells could be quantitatively identified by staining the cells to be killed when the test substance was co-cultured with cancer cell lines and PBMCs. […]

BT-474 cells = experiment: mGI-101 and Herceptin in BT-474 xenotransplanted tumor model; assay type: in vivo, human
Excerpt: BT-474 cells were purchased from ATCC (USA) and cultured in RPMI1640 medium (Welgene) containing 10% FBS (Gibco) and 1% antibiotic/antifungal agent (Gibco).
In order to establish a xenotransplanted tumor model for BT-474 cells, it was subcutaneously injected into the left flank of BALB/c nu/nu female mice (7-week-old) by pulling the leather skin of the mice to make a space using a pellet transplant trochar (MP-182, Innovative Research of America, USA) so that it was located under the skin of the left flank.
A certain period of time after cell inoculation of the tumor grafts of the mice, the tumor volume was measured for animals with no abnormalities in the health condition of the animals, and the subjects were selected so that the average of each group reached less than 60-120 mm^3, and the selected animals were assigned as evenly as possible based on tumor volume and body weight, each group including 10 animals.
Clinical symptoms such as a disease and a behavioral change were observed once a day during the test period, and deceased animals were identified, and the mice were sacrificed when the tumor size reached a size of 4,000 mm^3.
The tumor volume before administration of each subject was set as the value measured at the time of grouping.
All statistical calculations were performed using Prism 8.0 (Graph Pad Software Inc, USA). […]

Substance | level of killing cancer cells (HCT116 cells) | tumor size (BT-474 cells; Herceptin alone, day 25 and day 28) | tumor size compared with the vehicle control (BT-474 cells; mGI-101 3 mg/kg i.v. QW: day 28, Herceptin 1 mg/kg i.p. QW: day 14, 18, 21, combination: day 14 to day 28)
Cetuximab: EGFR inhibitor [reference compound] | high level of killing cancer cells |  | 
Herceptin: Herceptin (Trastuzumab) [reference compound] |  | tended to be increased rapidly | statistically significant reduction in tumor size
